ChEMBL document CHEMBL1152610, “3- and 6-Substituted 2-amino-4,5,6,7-tetrahydrothieno[2,3-c]pyridines as A1 adenosine receptor allosteric modulators and antagonists” (Bioorg Med Chem, 2009)

Amino acid sequences for entries named in this document (tags omitted).
UniProt P30542, whole entry: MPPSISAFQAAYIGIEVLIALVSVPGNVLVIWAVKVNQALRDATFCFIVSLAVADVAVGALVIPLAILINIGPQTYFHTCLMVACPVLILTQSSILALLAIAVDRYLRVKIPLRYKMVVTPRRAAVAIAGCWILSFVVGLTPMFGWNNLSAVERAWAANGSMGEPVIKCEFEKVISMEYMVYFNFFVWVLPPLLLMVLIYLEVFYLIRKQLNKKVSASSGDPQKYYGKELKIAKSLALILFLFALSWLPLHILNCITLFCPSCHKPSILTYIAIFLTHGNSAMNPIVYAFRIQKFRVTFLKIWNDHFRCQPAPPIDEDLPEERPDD

How the values were obtained:
Type in all cases: functional, cell-based
Adenosine receptor A1 [1] = target: T1, Adenosine receptor A1 (Homo sapiens, UniProt P30542); test: Agonist activity at human adenosine A1 receptor expressed in CHOk1 cells assessed as potentiation of R-PIA-induced ERK1/2 phosphorylation at 3 uM
Summary of the method: (§1)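 FlpIn-CHO cells stably expressing human A1AR were seeded at 50,000/well and kept in serum-free DMEM/20 mM HEPES for at least 4 h. They were pretreated for 30 min with 1 U/mL adenosine deaminase, then for 30 min at 37 °C with compound at 3 or 10 μM.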

Adenosine receptor A1 [2] = target: T1, Adenosine receptor A1; test: Agonist activity at human adenosine A1 receptor expressed in CHOk1 cells assessed as potentiation of R-PIA-induced ERK1/2 phosphorylation at 10 uM; summary of the method: as §1
Adenosine receptor A1 [3] = target: T1, Adenosine receptor A1; test: Agonist activity at human adenosine A1 receptor expressed in CHOk1 cells assessed as induction of ERK1/2 phosphorylation at 10 uM relative to R-PIA; summary of the method: as §1

Q: Which Activity (Adenosine receptor A1 [1]) does the source give for `Cc1sc(N)c(C(=O)c2cccc(C(F)(F)F)c2)c1C` here?
A: Active

Q: And the Activity (Adenosine receptor A1 [2])?
A: Active

Q: And the Activity (Adenosine receptor A1 [3])?
A: 40%

The source made the active and inactive calls. The calls are words filed in the database; no cut-off is given here.
